A word on the IC50: it is the concentration that gives 50% inhibition. High values mean a need for much substance, low ones inhibition by little substance. Usually Kd stands for the constant that tells how readily two partners part at equilibrium. A low value points to a tighter complex.

The chains behind the UniProt entries cited, without tags or fusion partners. Residues count along the entry.
UniProt P45983, 1-384 isoform P45983-3: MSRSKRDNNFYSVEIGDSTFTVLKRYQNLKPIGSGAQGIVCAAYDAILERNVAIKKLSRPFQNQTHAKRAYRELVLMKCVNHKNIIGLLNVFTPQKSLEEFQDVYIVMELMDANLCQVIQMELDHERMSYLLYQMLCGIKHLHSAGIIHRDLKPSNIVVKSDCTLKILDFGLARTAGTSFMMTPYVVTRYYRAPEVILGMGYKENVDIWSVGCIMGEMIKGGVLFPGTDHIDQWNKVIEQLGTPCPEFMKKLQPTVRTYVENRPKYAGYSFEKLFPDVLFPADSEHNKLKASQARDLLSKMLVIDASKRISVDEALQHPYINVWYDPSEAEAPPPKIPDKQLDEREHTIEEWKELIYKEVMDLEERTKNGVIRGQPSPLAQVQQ
UniProt P45983, 1-384 isoform P45983-3 C116S: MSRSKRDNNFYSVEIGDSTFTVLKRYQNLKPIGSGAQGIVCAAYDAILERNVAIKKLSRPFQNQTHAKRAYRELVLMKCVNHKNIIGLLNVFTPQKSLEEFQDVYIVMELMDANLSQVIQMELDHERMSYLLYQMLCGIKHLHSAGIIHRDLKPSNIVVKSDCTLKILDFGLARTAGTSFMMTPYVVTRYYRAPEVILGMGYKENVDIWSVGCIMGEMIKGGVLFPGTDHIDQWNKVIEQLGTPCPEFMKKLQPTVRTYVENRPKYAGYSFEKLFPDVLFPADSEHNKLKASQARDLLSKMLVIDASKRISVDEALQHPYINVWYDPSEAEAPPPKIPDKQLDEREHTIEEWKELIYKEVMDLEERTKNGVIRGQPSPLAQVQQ

From publication PMC11452492 (Nature Communications, 2024) come the findings set out here.

The target of one test is JNK1 (Homo sapiens, UniProt P45983). Briefly: in vitro JNK1 PhALC kinase assay. The class given is biochemical.
Another test concerns the target JNK1 C116S mutant (Homo sapiens, UniProt P45983, C116S). In words: biochemical. The class given is binding.

On to `Cc1cc(NC(=O)c2cccc(NC(=O)/C=C/CN(C)C)c2)ccc1Nc1nccc(-c2cccnc2)n1` [JNK-IN-8], for which the IC50 against JNK1 amounted to 44 ± 6 nM. The Kd on JNK1 C116S mutant was in the range of 200 to 300 nM.
